This note sets out measurements from US10196386B2, “Compounds having muscarinic receptor antagonist and beta2 adrenergic receptor agonist activity” (priority 2016, dated 2019).

Amino acid sequences for entries named in this document (tags omitted).
UniProt P20309, whole entry, looked up: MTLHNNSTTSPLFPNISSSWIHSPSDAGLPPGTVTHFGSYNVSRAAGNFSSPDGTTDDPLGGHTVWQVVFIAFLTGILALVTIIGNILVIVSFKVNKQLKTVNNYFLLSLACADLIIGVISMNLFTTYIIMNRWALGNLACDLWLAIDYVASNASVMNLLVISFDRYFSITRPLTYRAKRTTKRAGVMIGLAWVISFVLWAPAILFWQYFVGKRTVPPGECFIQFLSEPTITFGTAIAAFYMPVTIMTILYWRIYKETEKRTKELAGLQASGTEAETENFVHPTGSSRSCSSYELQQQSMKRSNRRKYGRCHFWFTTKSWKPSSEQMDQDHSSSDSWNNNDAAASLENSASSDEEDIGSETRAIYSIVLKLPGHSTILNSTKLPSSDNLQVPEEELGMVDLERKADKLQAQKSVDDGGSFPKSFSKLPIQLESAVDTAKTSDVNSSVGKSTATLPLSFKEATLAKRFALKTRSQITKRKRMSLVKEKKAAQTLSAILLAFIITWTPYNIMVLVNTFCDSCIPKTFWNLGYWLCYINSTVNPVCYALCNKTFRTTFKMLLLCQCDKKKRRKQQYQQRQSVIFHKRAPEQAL

This experiment has as its target Human M3 receptor (Homo sapiens, UniProt P20309). Put plainly: M3 receptor radioligand binding assay. As to conditions: read-out: M3 Range; binding affinity class, human M3 receptor membranes, [N-methyl-3H] Scopolamine Methyl Chloride.
`CN1CCC(OC(=O)[C@](O)(c2ccccc2)c2cccc(-c3ccc(CNC(=O)c4ccc(CNC[C@H](O)c5ccc(O)c6[nH]c(=O)ccc56)cc4)s3)c2)CC1` [Compound 2, 1-Methylpiperidin-4-yl (S)-2-hydroxy-2-(3-(5-((4-((((R)-2-hydroxy-2-(8-hydroxy-2-oxo-1,2-dihydroquinolin-5-yl)ethyl)amino)methyl)benzamido)-methyl)thiophen-2-yl)phenyl)-2-phenylacetate]: the IC50 fell in the range of 0.3 to 3 nM.
In the case of `O=C(NCc1ccc(-c2cccc([C@](O)(C(=O)OC[C@H]3CCCN(Cc4ccccc4)C3)c3ccccc3)c2)s1)c1ccc(CNC[C@H](O)c2ccc(O)c3[nH]c(=O)ccc23)cc1` [Compound 2C, ((S)-1-Benzylpiperidin-3-yl)methyl (S)-2-hydroxy-2-(3-(5-((4-((((R)-2-hydroxy-2-(8-hydroxy-2-oxo-1,2-dihydroquinolin-5-yl)ethyl)amino)-methyl)benzamido)methyl)thiophen-2-yl)phenyl)-2-phenylacetate] it was above 3 nM.
In the case of `O=C(NCc1ccc(-c2cccc([C@](O)(C(=O)OC3CCN(Cc4ccccc4)CC3)c3ccccc3)c2)s1)c1ccc(CNC[C@H](O)c2ccc(O)c3[nH]c(=O)ccc23)cc1` [Compound 2F, 1-Benzylpiperidin-4-yl (S)-2-hydroxy-2-(3-(5-((4-((((R)-2-hydroxy-2-(8-hydroxy-2-oxo-1,2-dihydroquinolin-5-yl)ethyl)amino)methyl)-benzamido)methyl)thiophen-2-yl)phenyl)-2-phenylacetate] it was 0.3 to 3 nM.
